Experimental data taken from ChEMBL document CHEMBL1781909, “Potent mGluR5 antagonists: pyridyl and thiazolyl-ethynyl-3,5-disubstituted-phenyl series” (Bioorg Med Chem Lett, 2011).
pIC50, pKi: −log10 of the molar value.

By UniProt entry, the sequences of proteins in these tests, tags left out.
UniProt P31424, whole entry: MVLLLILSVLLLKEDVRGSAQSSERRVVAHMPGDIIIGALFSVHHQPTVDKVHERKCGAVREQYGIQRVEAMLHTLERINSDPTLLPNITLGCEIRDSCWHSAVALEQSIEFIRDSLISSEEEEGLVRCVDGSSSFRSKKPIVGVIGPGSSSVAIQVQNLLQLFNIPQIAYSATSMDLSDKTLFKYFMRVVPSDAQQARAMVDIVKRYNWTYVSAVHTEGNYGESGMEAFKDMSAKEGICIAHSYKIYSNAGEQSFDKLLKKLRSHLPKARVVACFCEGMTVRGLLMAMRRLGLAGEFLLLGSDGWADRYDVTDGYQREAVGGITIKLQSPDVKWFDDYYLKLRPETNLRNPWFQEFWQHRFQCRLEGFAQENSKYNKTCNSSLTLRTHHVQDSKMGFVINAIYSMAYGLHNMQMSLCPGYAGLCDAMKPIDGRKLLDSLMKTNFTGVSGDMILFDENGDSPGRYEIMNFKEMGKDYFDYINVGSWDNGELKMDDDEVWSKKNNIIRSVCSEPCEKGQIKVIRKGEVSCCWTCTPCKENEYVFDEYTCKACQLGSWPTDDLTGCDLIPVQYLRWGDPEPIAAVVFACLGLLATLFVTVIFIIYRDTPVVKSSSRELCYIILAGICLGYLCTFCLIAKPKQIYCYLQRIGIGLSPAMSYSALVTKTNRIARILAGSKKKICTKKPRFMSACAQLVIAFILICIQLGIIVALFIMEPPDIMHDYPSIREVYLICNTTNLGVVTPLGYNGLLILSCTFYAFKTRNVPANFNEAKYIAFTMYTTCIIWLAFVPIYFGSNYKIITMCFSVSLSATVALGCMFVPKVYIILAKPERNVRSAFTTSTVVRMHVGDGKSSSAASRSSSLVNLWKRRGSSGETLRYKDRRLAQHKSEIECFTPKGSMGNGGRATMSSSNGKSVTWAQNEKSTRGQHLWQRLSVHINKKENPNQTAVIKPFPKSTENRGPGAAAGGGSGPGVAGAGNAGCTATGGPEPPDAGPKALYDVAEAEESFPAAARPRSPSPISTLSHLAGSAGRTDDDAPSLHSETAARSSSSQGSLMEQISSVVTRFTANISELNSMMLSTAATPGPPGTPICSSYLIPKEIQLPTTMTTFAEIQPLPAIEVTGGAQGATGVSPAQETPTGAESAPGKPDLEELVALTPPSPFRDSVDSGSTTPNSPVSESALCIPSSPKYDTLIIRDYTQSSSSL

Key:
[1] = target: T1, Metabotropic glutamate receptor 5 (Rattus norvegicus, UniProt P31424); experiment: Displacement of [3H]methoxy-PEPY from rat mGluR5 expressed in human HEK-293 cells by liquid scintillation counting; type: cell-based, HEK293
Summary of the method: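 Membranes from stable rat mGluR5-HEK293A cells (10 µg/well) incubated with 2 nM [3H]methoxy-PEPY in 50 mM Tris/0.9% NaCl, pH 7.4, with or without compound, 1 h at room temperature with shaking. Filtered on GF/B, washed three times, counted by liquid scintillation. Nonspecific binding defined with 5 µM MPEP. Ki derived from fitted IC50; three experiments in duplicate.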

[2] = target: T1, Metabotropic glutamate receptor 5; experiment: Antagonist activity at rat mGluR5 expressed in human HEK-293 cells assessed as inhibition of glutamate-induced intracellular calcium mobilization; type: functional, cell-based, HEK293

pKi [1]	pIC50 [2]	Compound
7.73	8.53	Cc1cccc(C#Cc2ccccc2)n1
9.70	9.18	N#Cc1cc(F)cc(C#Cc2ccccn2)c1
–	8.30	Cc1nc(C#Cc2cccnc2)cs1
